Sequences of proteins named here, by UniProt entry; tags and fusion partners are left off.
UniProt P08588, whole entry: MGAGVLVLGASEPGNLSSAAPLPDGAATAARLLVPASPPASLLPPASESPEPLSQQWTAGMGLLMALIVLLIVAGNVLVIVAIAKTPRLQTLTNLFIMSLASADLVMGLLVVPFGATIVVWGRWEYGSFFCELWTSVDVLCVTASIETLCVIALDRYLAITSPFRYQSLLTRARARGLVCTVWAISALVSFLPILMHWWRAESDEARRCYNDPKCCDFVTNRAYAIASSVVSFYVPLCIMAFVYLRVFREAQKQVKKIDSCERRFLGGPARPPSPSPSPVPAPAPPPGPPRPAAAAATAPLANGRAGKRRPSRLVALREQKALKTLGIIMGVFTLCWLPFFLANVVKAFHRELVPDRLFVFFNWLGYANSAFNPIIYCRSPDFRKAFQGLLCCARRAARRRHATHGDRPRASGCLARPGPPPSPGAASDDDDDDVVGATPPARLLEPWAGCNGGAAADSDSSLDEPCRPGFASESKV

In article PMC12101717, “Structure and dynamics determine G protein coupling specificity at a class A GPCR” (Science Advances, 2025):

Tests used:
β1AR [1] = molecular target: T1, β1AR (Homo sapiens, UniProt P08588); assay: Radioligand binding assay with membranes from HEK cells
β1AR [2] = molecular target: T1, β1AR; assay: β-Arrestin-2 recruitment (PathHunter assay); type: cell-based; set-up: expressed in transfected cells; host or cells: HEK293T stably expressing enzyme-acceptor-tagged β-arrestin-2

Structure (SMILES): CNC[C@H](O)c1ccc(O)c(O)c1 [Epinephrine, epinephrine, reference compound]
- Ki (β1AR [1]): 2200 ± 290 nM
- EC50 (β1AR [2]): 380 ± 52 nM
